Values of other authors, collected in publication PMC5773580, “A synthetic combinatorial approach to disabling deviant Hedgehog signaling” (Scientific Reports, 2018).

Biological target: T1, HDAC10 (Homo sapiens, UniProt Q969S8)
T1 sequence (Q969S8 1-669): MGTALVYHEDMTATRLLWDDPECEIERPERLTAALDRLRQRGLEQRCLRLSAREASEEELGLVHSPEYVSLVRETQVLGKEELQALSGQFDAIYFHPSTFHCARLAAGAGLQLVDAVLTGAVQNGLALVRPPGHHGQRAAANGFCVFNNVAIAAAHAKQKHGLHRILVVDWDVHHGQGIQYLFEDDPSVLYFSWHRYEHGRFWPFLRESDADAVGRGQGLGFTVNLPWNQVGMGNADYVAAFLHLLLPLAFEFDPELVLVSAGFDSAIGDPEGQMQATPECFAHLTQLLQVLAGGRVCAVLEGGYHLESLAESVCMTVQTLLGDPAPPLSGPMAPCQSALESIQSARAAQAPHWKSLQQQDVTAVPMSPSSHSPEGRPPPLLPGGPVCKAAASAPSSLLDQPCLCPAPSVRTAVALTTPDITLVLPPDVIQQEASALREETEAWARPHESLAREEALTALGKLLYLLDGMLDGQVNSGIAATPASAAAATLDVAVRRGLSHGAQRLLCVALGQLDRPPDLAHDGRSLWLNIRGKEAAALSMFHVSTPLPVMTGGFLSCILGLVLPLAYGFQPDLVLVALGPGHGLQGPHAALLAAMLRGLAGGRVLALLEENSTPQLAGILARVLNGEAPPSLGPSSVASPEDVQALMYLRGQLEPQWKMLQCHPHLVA
Conditions: read-out: IC50 (HDAC10); reference dataset, same assay platform (BPS) ref 23; cited from earlier work

O=C(CCCCCCC(=O)Nc1ccccc1)NO [SAHA, suberanilohydroxamic acid]
IC50: 58 nM
